By UniProt entry, the sequences of proteins in these tests, tags left out. Residues count along the entry.
UniProt P48357, 22-1165: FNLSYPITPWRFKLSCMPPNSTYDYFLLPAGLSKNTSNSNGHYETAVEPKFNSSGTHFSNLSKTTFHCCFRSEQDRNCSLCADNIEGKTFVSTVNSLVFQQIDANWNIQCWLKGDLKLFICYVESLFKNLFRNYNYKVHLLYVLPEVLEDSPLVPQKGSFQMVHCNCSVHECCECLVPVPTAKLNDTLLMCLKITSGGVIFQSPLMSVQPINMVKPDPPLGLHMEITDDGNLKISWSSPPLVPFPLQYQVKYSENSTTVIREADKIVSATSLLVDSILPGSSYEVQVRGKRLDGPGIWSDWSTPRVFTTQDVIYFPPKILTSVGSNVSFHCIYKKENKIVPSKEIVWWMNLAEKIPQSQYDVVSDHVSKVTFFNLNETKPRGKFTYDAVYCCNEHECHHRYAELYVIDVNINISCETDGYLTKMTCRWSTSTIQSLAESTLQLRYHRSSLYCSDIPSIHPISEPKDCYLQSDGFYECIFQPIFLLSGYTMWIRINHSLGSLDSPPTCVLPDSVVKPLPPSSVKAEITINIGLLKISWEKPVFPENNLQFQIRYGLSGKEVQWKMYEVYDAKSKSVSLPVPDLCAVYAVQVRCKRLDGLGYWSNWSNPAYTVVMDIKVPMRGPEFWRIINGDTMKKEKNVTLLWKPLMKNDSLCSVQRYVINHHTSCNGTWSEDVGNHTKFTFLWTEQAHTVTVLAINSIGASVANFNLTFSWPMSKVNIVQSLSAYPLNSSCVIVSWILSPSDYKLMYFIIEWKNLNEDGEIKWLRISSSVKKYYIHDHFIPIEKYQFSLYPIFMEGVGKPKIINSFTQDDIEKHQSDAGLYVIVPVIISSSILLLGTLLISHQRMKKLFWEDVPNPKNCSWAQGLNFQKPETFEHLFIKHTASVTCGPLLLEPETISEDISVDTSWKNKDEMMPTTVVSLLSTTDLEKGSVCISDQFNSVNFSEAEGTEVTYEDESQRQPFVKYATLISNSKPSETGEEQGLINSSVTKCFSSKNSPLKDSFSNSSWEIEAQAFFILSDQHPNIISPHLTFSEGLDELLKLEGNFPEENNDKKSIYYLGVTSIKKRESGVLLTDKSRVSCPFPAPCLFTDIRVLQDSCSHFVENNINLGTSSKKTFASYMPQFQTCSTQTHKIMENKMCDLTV

According to patent US20250346663A1:

Molecular target: human leptin receptor on 293T reporter cells (human) (UniProt P48357)
Assay: cell-based or functional assay

bioactivity of the purified human leptin from Spirulina: 0.5 nM
Substance: mbp_G4S_hlep(22-167)V94M (MBP-(G4S)-human leptin V94M-6His) (ligand)
